## Antibody variant affinities, Ab-95 light chain, assay 2

Reference: Engelhart et al. 2022, doi:10.1038/s41597-022-01779-4. File: FLAb, binding data.

Antigen: PDVDLGDISGINAS, a 14-residue peptide of the SARS-CoV-2 spike HR2 region.

Each scFv is VH, the linker GGGGSGGGGSGGGGS, VL, as in the parent Ab-95, and differs from it in the CDRs of the light chain only.
VH: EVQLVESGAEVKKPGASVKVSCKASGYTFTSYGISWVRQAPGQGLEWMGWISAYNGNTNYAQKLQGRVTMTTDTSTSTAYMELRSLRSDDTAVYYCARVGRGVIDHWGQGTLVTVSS
VL: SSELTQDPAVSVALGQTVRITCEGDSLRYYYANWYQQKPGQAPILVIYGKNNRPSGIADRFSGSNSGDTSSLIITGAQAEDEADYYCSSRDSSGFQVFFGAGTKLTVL

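The parent was found by panning a naive human phage display library on the peptide. The library (AAYL52) carries one to three amino acid substitutions per variant, with no insertions or deletions. AlphaSeq pools MATa yeast showing the antibodies with MATalpha yeast showing the peptide. Binding brings cells together so that they mate, and sequencing counts the barcode pairs among the diploids. A regression on co-assayed BCL2-family reference pairs converts the normalised counts of each replicate to an apparent Kd. There are three technical replicates.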

Each variant is given by its three light chain CDRs, as the data file delimits them; those of the parent are EGDSLRYYYAN, GKNNRPS, SSRDSSGFQVF.
Values are log10 of the apparent Kd in nM; lower means stronger binding.
Averages over replicates are reported, and they cover detected replicates only.
A pair that was not seen in that replicate is written "n.d."; this usually means weak binding, but a binder can also be missed.
Parent in this assay: reference entry 2.31, copy in this library 2.25.
Background: pairings of library AAYL52 with three empty control strains gave a value in 28% of cases (median 3.91, 5th percentile 2.90). Values in that range, when seen in few replicates, are hard to tell from nonspecific mating. For each scFv, signals with the empty controls are counted beside the result, with their mean in brackets.

CDR-L1	CDR-L2	CDR-L3	log10 Kd (nM) by replicate	mean log10 Kd (nM)	empty controls
EGDSLRYYYDN	GKNNRPS	SSRDSHGFQVF	n.d. n.d. n.d.	n.d.	4 of 9 (3.53)
EGDSLRYPYAN	GKNNRPS	SSRDPSGFQHF	2.51 2.30 2.69	2.50	2 of 9 (4.89)
EGESLRYYVAN	GKNMRPS	SSRDSSGFQVF	3.02 2.38 2.73	2.71	5 of 9 (3.76)
EADSLDYYYAC	GKNNRPS	SSRDSSGFQVF	3.61 n.d. 3.99	3.80	3 of 9 (4.20)
EGDSLRYYYAY	VKNNRPS	SSNDSSGFQVF	n.d. 4.31 n.d.	4.31	3 of 9 (3.98)
EGDSLRYYYAN	PKNDRPS	SSRQSSGFQVF	4.64 n.d. n.d.	4.64	2 of 9 (4.23)
EGDSLRYYYAN	GKNNRRS	SSRDSSGFQVL	4.73 3.06 n.d.	3.90	1 of 9 (4.55)
EGDSLRHYYAN	GKNNRPS	SYRDMSGFQVF	n.d. 4.34 4.56	4.45	5 of 9 (4.37)
EGDSLRYMYAN	GKNNRPS	SSRDSSGFQQL	n.d. n.d. n.d.	n.d.	4 of 9 (3.67)
EGCSLRYYYLN	GKNNRPS	SSRDSSGFQVR	n.d. n.d. 3.86	3.86	1 of 9 (4.21)
EGDSLRYYYAT	GKNNRPS	SSKDSSGVQVF	n.d. n.d. 3.54	3.54	2 of 9 (3.49)
EGDSLRYYYAN	RKNNRPS	SSRTSSGFQVF	n.d. n.d. 3.65	3.65	1 of 9 (3.20)
EGDSLRYYYAN	GKNNRPQ	SSRDSGGFQVF	2.53 2.50 1.91	2.31	3 of 9 (4.05)
EGDSLRYYYAL	GKNNNPS	SSRDSSGFQLF	n.d. 4.21 n.d.	4.21	0 of 9
QGDSLRYGYAN	GKNNRPS	RSRDSSGFQVF	0.50 0.65 -0.45	0.23	5 of 9 (3.62)
EGNFLRYYYAN	GKNNRPS	SSVDSSGFQVF	3.96 n.d. n.d.	3.96	2 of 9 (3.18)
EGMSLRYYYAN	GKNNNPS	SSRDSSGFQVF	3.53 3.08 3.40	3.34	6 of 9 (4.15)
EIDSLRKYYAN	GKNNRPS	SSRDSSTFQVF	4.72 5.73 n.d.	5.23	5 of 9 (4.13)
PGDSLYYYYAN	GKNNRPS	SSRDSSGLQVF	n.d. n.d. n.d.	n.d.	0 of 9
EIDWLRYYYAN	GKNERPS	SSRDSSGFQVF	n.d. 5.52 3.48	4.50	3 of 9 (3.53)
EGDSLRYYYAN	GKNNRPS	SSRDSTLFNVF	2.40 2.77 3.35	2.84	1 of 9 (3.19)
EYDSLRYKYAN	GKNNRKS	SSRDSSGFQVF	n.d. n.d. 3.38	3.38	2 of 9 (3.20)
EGDSLRYYYAN	GKNNRPW	SSRTSSGFQVF	n.d. n.d. n.d.	n.d.	1 of 9 (4.64)
EGDSLRYYYAN	AKSNRPS	SPRDSSGFQVF	n.d. 4.75 n.d.	4.75	5 of 9 (3.91)
EGDSLRYYYAN	GKNNNPS	TSRQSSGFQVF	n.d. n.d. 4.69	4.69	1 of 9 (3.64)
EGDSERYYYAN	GKNNRPS	SHRDSPGFQVF	n.d. n.d. n.d.	n.d.	2 of 9 (3.37)
EGDSLRYYYAN	MKNNRPS	NSRDSSGFQVV	n.d. n.d. n.d.	n.d.	2 of 9 (4.22)
EGDSLRYYYAN	GKNNRPS	SSRDSSHFQVF	n.d. 3.58 2.70	3.14	2 of 9 (4.08)
EGDSLMYYYAN	SKNNRPS	SSRDSSGFQYF	3.79 3.10 3.55	3.48	2 of 9 (3.58)
EGDWLRYYYAN	GKNNKPS	SSRDSYGFQVF	4.21 5.58 n.d.	4.89	0 of 9
EGDSLRCYYAN	RKNNRPS	SMRDSSGFQVF	3.82 4.61 n.d.	4.21	2 of 9 (4.23)
EGYSLRYYYAN	GKNNRPS	SSRDSAGCQVF	2.67 3.87 2.23	2.92	2 of 9 (3.93)
SGDSLRYYYIY	GKNNRPS	SSRDSSGFQVF	n.d. n.d. 3.25	3.25	1 of 9 (4.60)
EGDSLRYYYAN	GKNNRPS	SSRQSSGPQWF	4.52 4.26 n.d.	4.39	2 of 9 (4.57)
EGDSLNYYTQN	GKNNRPS	SSRDSSGFQVF	3.22 3.54 n.d.	3.38	1 of 9 (2.51)
EGDSMRYYYAN	CKNNRPS	SSRCSSGFQVF	3.67 n.d. n.d.	3.67	0 of 9
EGDSNRYYYAN	GKNNRPS	ASRDSSGFQVV	2.48 n.d. 3.13	2.81	0 of 9
VGDSLRYYYAN	GKNNRKS	SSRDSSGFQHF	n.d. 3.27 2.89	3.08	0 of 9
EGDSLRYYYAN	GKCNRSS	SSADSSGFQVF	n.d. n.d. n.d.	n.d.	1 of 9 (3.67)
ETDSLRYYYAT	GKPNRPS	SSRDSSGFQVF	4.40 5.45 4.41	4.75	6 of 9 (4.40)
EGDSLRYYYAN	GKNNLPS	SKRDSSGFQVF	n.d. 3.51 n.d.	3.51	3 of 9 (4.05)
EGDSLRYRYTN	GKNNRPS	SSRDSSGFVVF	3.26 3.27 2.65	3.06	1 of 9 (4.50)
EGDSLRYPYAN	GYNNRPS	SSRDSSGFQSF	2.99 2.61 3.08	2.90	2 of 9 (3.95)
CGGSLRYYYAN	GKNNRPS	SSRDTSGFQVF	3.53 3.20 2.77	3.17	2 of 9 (4.20)
EGDSRRYYYAN	GKNNRRS	SSRDSSDFQVF	4.03 4.51 n.d.	4.27	4 of 9 (3.62)
EGDSLRYYYAN	GKNVRPS	SCRDSSGFQVQ	2.95 2.41 2.24	2.53	4 of 9 (3.79)
EHDSLRYYYAN	GKNYRPL	SSRDSSGFQVF	3.37 3.32 2.64	3.11	4 of 9 (3.80)
EGDSLMYYYAN	GKNNIPS	SSRDSSSFQVF	3.83 3.00 n.d.	3.42	1 of 9 (4.07)
EGDSLRYYYAN	GKNNRSS	SSRPSVGFQVF	3.93 2.81 2.30	3.01	5 of 9 (4.47)
EGDSLRYYYAN	GKNNRPS	SSHDSSGFQVF	3.74 n.d. 3.73	3.74	1 of 9 (3.96)

The first 8 entries again:

CDR-L1	CDR-L2	CDR-L3	log10 Kd (nM) by replicate	mean log10 Kd (nM)	empty controls
EGDSLRYYYDN	GKNNRPS	SSRDSHGFQVF	n.d. n.d. n.d.	n.d.	4 of 9 (3.53)
EGDSLRYPYAN	GKNNRPS	SSRDPSGFQHF	2.51 2.30 2.69	2.50	2 of 9 (4.89)
EGESLRYYVAN	GKNMRPS	SSRDSSGFQVF	3.02 2.38 2.73	2.71	5 of 9 (3.76)
EADSLDYYYAC	GKNNRPS	SSRDSSGFQVF	3.61 n.d. 3.99	3.80	3 of 9 (4.20)
EGDSLRYYYAY	VKNNRPS	SSNDSSGFQVF	n.d. 4.31 n.d.	4.31	3 of 9 (3.98)
EGDSLRYYYAN	PKNDRPS	SSRQSSGFQVF	4.64 n.d. n.d.	4.64	2 of 9 (4.23)
EGDSLRYYYAN	GKNNRRS	SSRDSSGFQVL	4.73 3.06 n.d.	3.90	1 of 9 (4.55)
EGDSLRHYYAN	GKNNRPS	SYRDMSGFQVF	n.d. 4.34 4.56	4.45	5 of 9 (4.37)